Data: BindingDB's records for doi:10.1021/jm00111a038 (Ici Pharmaceuticals Group, 1991)

Test: Compound was tested for the inhibition of 5-lipoxygenase (5-Lpo) in guinea pig.

- IC50: 12 µM
Structure (SMILES): COC(c1cccc(OCc2ccc3ccccc3c2)c1)c1nccs1 (stereo unspecified)
